Bioassay records from PubChem BioAssay.
The list is not random: actives were taken first. Their share in the collection is about 2.8%.
UUG fidelity: modulators of start codon recognition fidelity in yeast. S. cerevisiae UUG-firefly luciferase reporter, luminescence/redox ratio. activity score, % at 18.7 µM. 0.13% of 350,000 active. AID 602363;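 active = replicate mean at a twofold rise or more, about +100% in these data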;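 also: firefly luciferase made from a UUG start codon reports start codon fidelity; reporter light over untreated wells divided by growth signal over untreated wells; some hits fall short of that in this replicate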
PGC1a acetyl inh: lowers PGC1a acetylation signal in U2OS cells. AlphaScreen anti-acetyl-lysine; with virally co-expressed GCN5 acetyltransferase. inhibition, % at 15.6 µM. 350,000 tested, 0.17% active;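 active = every replicate shows inhibition of at least 40%; inconclusive = mean inhibition at least 40% but some replicate below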;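 note: 0% = neutral control wells and 100% = positive control wells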
E-sel inducer: E-selectin induction on HUVECs. HUVEC E-selectin immunofluorescence imaging; normalized: neutral wells 0, TNF-alpha wells 100. activation, % at 7.58 µM. 260,000 tested, 0.37% active. AID 686992. P16581;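 active = mean E-selectin-positive cell signal at least 10% of the positive control, reached in at least 60% of replicates, without over 20% cell loss; inconclusive = no rule given, readout overlaps actives, possibly toxicity-flagged; inactive = the rest, including those meeting only one limit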
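Test system: HUVEC; input: 3,000 HUVEC/well; measured by: immunofluorescence imaging; read-out: % PE-positive cells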
Statin myotox sup: suppression of simvastatin myotoxicity. 330,000 tested, 0.78% active. C2C12 myotubes + simvastatin, ATP luminescence, 48 h; scaled: DMSO 0, geranylgeraniol control 100. rescue of ATP level, % at 7.49 µM;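 active = mean ATP rescue above about 67%, or every replicate alone reaching that limit, limit read from the data, passing the limit was not always enough; inconclusive = no clear call, values can overlap the other calls; inactive = mean under the limit and some replicate under it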;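 note: myotubes were challenged with 10 µM simvastatin during compound exposure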
esBAF inh: inhibitors of esBAF chromatin remodeling in mouse ES cells; Bmi1-luciferase knock-in reporter, 24 h; 100% = twice the neutral-well signal; reporter increase, % at 12.5 µM; 350,000 tested, 2% active; in the data active = activation above about 40%; inconclusive = no clear call, values can overlap the other calls;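 note: 0% = median of the plate's neutral control wells and 100% = double that signal; a rise in the Bmi1 reporter signal indicates esBAF inhibition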
PglD DTNB: PglD (C. jejuni) enzyme inhibition. purified PglD enzyme, DTNB colorimetric CoA detection. inhibition, % at 12.5 µM. 360,000 tested, 0.098% active; in the data active = inhibition above about 16%, passing the limit was not always enough; inconclusive = no clear call, values can overlap the other calls
* = called active by the depositor; ? = inconclusive; . = no result given.

1) c1ccc(CCNc2ncnc3c2cnn3-c2ccccc2)cc1
2) CC(=O)Nc1ccc(Nc2ncnc3c2cnn3-c2ccccc2)cc1
3) c1ccc(CNc2ncnc3c2cnn3-c2ccccc2)cc1
4) Cc1cccc(-n2ncc3c(NCCc4ccc(S(N)(=O)=O)cc4)ncnc32)c1
5) C[C@H](CO)N1C[C@H](C)[C@@H](CN(C)C(=O)c2ccccn2)Oc2cc(C#Cc3ccccc3)ccc2S1(=O)=O
6) CCC(=O)Nc1ccc2c(c1)C(=O)N(C)C[C@@H](OC)[C@@H](C)CN(C(=O)C1CCC1)[C@H](C)CO2

| compound no. | 1 | 2 | 3 | 4 | 5 | 6 |
| --- | --- | --- | --- | --- | --- | --- |
| UUG fidelity | -9 | -10 | -8 | -22 | -1 | -8 |
| PGC1a acetyl inh | -8 | . | . | -11 | -11 | 16 |
| E-sel inducer | . | . | . | -2 | 0 | 0 |
| Statin myotox sup | -9 | 1 | -39 | 105* | -17 | -5 |
| esBAF inh | 72* | 31 | ? | 6 | 1 | 0 |
| PglD DTNB | -3 | 5 | 0 | 0 | 1 | 1 |

7) CN(C)C(=O)c1ccc(-c2cccc(-c3nc(C(=O)NC4CCC4)cc4c3[C@H](CCO)N([S@@](=O)C(C)(C)C)C4)c2)cc1
8) C[C@H](NC(=O)C[C@@H]1CC[C@@H]2[C@H](COC[C@H](O)CN2C(=O)Nc2cccc(F)c2)O1)c1ccccc1
9) Cc1cccc(Nc2ncnc3c2cnn3C)c1
10) Cn1ncc2c(Nc3ccc4ccccc4c3)ncnc21
11) Cc1c(C)n(CCc2ccccc2)c2ncnc(NCCCO)c12
12) c1ccc(-n2ncc3c(NCCN4CCOCC4)ncnc32)cc1

| compound no. | 7 | 8 | 9 | 10 | 11 | 12 |
| --- | --- | --- | --- | --- | --- | --- |
| UUG fidelity | . | 19 | -7 | -10 | . | -11 |
| PGC1a acetyl inh | -19 | 5 | 2 | 7 | . | 6 |
| E-sel inducer | 2 | 0 | . | . | 1 | . |
| Statin myotox sup | 8 | -19 | -7 | 14 | -8 | -7 |
| esBAF inh | 6 | 31 | -2 | 53* | ? | 47* |
| PglD DTNB | 4 | -2 | 4 | -3 | . | -2 |

13) COCCn1c(C)c(C)c2c(NCCc3ccccc3)ncnc21
14) Clc1ccc(-n2ncc3c(NCc4cccnc4)ncnc32)cc1Cl
15) c1ccc(-n2ncc3c(NCCN4CCCCC4)ncnc32)cc1
16) C[C@H](CO)N1C[C@H](C)[C@H](CN(C)CC2CC2)OCCCC[C@H](C)Oc2ccc(NC(=O)Nc3ccc(C(F)(F)F)cc3)cc2C1=O
17) COc1cc(C(=O)Nc2nnc(-c3sccc3C)s2)cc(OC)c1OC
18) CCOCc1nnc(NC(=O)c2cc(OC)c(OC)c(OC)c2)s1

| compound no. | 13 | 14 | 15 | 16 | 17 | 18 |
| --- | --- | --- | --- | --- | --- | --- |
| UUG fidelity | -36 | -2 | -11 | . | -12 | -7 |
| PGC1a acetyl inh | 51* | 2 | 0 | 4 | -13 | 5 |
| E-sel inducer | 0 | . | . | 0 | . | 0 |
| Statin myotox sup | -1 | -11 | -9 | . | 98* | -4 |
| esBAF inh | -30 | 65* | 12 | . | 9 | -2 |
| PglD DTNB | 7 | 5 | 2 | . | -1 | -2 |

19) COc1cccc(S(=O)(=O)N[C@@H]2CC[C@@H](CC(=O)NCc3ccc(Cl)cc3)O[C@H]2CO)c1
20) C[C@@H]1CCCCO[C@@H](CN(C)Cc2ccncc2)[C@@H](C)CN([C@H](C)CO)C(=O)c2cc(NC(=O)CCCN(C)C)ccc2O1
21) Cc1ccc(CSc2nnc(-c3ccccn3)n2C)cc1
22) c1ccc(CSc2nnc(-c3ccccn3)n2-c2ccccc2)cc1
23) Cn1c(SCc2ccc(F)cc2)nnc1-c1ccccn1
24) CC(C)(C)NC(=O)CSc1nnc(-c2ccccn2)n1-c1ccccc1

| compound no. | 19 | 20 | 21 | 22 | 23 | 24 |
| --- | --- | --- | --- | --- | --- | --- |
| UUG fidelity | 4 | 8 | -26 | -4 | 3 | -11 |
| PGC1a acetyl inh | -3 | -4 | 3 | -11 | 32 | 12 |
| E-sel inducer | 0 | 0 | . | . | . | . |
| Statin myotox sup | 8 | -27 | 1 | 107* | 4 | -9 |
| esBAF inh | -2 | 4 | 27 | 1 | 41* | -42 |
| PglD DTNB | 1 | -1 | 5 | -4 | 5 | 4 |

25) O=C(COC(=O)c1ccccc1[N+](=O)[O-])NNC(=O)c1cccs1
26) O=C(COC(=O)c1ccccc1NCCO)NNC(=O)c1cccs1
27) CCC(=O)NC[C@H]1[C@@H](c2ccccc2)[C@H](CO)N1C(=O)C1CCC1
28) Cc1cc(/C=C2\C(=N)N3N=C(C(C)C)SC3=NC2=O)c(C)n1Cc1ccccc1
29) CCC1=NN2C(=N)/C(=C/c3cc(C)n(Cc4ccccc4)c3C)C(=O)N=C2S1
30) CC1(C)Cc2c(C#N)c(N3CCN(C(=O)c4ccco4)CC3)nc(-c3ccco3)c2CS1

| compound no. | 25 | 26 | 27 | 28 | 29 | 30 |
| --- | --- | --- | --- | --- | --- | --- |
| UUG fidelity | -14 | -26 | 28 | -23 | . | -13 |
| PGC1a acetyl inh | 3 | -2 | 1 | 49* | . | 3 |
| E-sel inducer | 0 | 428* | 1 | . | 6 | 0 |
| Statin myotox sup | . | -1 | 4 | -1 | . | 121* |
| esBAF inh | . | -1 | -8 | -6 | . | 6 |
| PglD DTNB | -4 | -6 | 3 | 6 | . | -2 |

31) CCC1(C)N=C(c2ccc3c(c2)OCO3)CC(c2ccccc2O)N1 (configuration not stated)
32) O=C(C[C@H]1CC[C@@H](NC(=O)C2CCOCC2)[C@@H](CO)O1)NCc1ccncc1
33) O=[N+]([O-])c1ccc(-c2nc3ccc([N+](=O)[O-])cc3[nH]2)cc1
34) O=[N+]([O-])c1ccc2nc(/C=C/c3ccc(Cl)cc3)[nH]c2c1
35) O=C(C[C@H]1CC[C@H](NC(=O)c2ccccc2)[C@H](CO)O1)NCCc1ccncc1
36) O=C1/C(=C/c2ccc(N3CCCC3)cc2)NC(=S)N1C1CC1

| compound no. | 31 | 32 | 33 | 34 | 35 | 36 |
| --- | --- | --- | --- | --- | --- | --- |
| UUG fidelity | -13 | . | 5 | -27 | -1 | -6 |
| PGC1a acetyl inh | -9 | 4 | -8 | -22 | 1 | -15 |
| E-sel inducer | . | 0 | . | . | 0 | . |
| Statin myotox sup | 6 | . | . | -19 | 4 | -32 |
| esBAF inh | 46* | . | . | 47* | -3 | 48* |
| PglD DTNB | -2 | . | 4 | -1 | -2 | 1 |

An excerpt from above, showing only UUG fidelity, E-sel inducer and Statin myotox sup:
nr	compound	UUG fidelity	E-sel inducer	Statin myotox sup
31	CCC1(C)N=C(c2ccc3c(c2)OCO3)CC(c2ccccc2O)N1 (configuration not stated)	-13	.	6
32	O=C(C[C@H]1CC[C@@H](NC(=O)C2CCOCC2)[C@@H](CO)O1)NCc1ccncc1	.	0	.
33	O=[N+]([O-])c1ccc(-c2nc3ccc([N+](=O)[O-])cc3[nH]2)cc1	5	.	.
34	O=[N+]([O-])c1ccc2nc(/C=C/c3ccc(Cl)cc3)[nH]c2c1	-27	.	-19

Other compounds follow:
37) Cc1cc(N2CCCC2)ccc1/C=C1\NC(=S)N(C)C1=O
38) CNC[C@@H]1Oc2ccc(NC(=O)C3CCCCC3)cc2CC(=O)N([C@@H](C)CO)C[C@@H]1C
39) O=C(Nc1ccc(F)cc1)c1ccc2snnc2c1
40) CCOc1ccc(NC(=O)c2ccc3snnc3c2)cc1
41) Cc1ccc(NC(=O)c2ccc3snnc3c2)cc1C
42) COc1ccccc1S(=O)(=O)N[C@H]1CC[C@H](CC(=O)NCc2cc(F)cc(F)c2)O[C@H]1CO

| compound no. | 37 | 38 | 39 | 40 | 41 | 42 |
| --- | --- | --- | --- | --- | --- | --- |
| UUG fidelity | . | -19 | -9 | -21 | 25 | . |
| PGC1a acetyl inh | -4 | 7 | . | -15 | -4 | 7 |
| E-sel inducer | . | 0 | . | . | . | -1 |
| Statin myotox sup | -5 | 4 | 6 | . | -1 | . |
| esBAF inh | 85* | 0 | 45* | 54* | ? | . |
| PglD DTNB | . | 10 | 0 | 4 | 1 | . |

43) C[C@H]1CN([C@@H](C)CO)C(=O)Cc2cc(NC(=O)CCCCCC(=O)Nc3ccccc3N)ccc2O[C@@H]1CN(C)Cc1ccc(C(F)(F)F)cc1
44) C[C@@H]1CN([C@@H](C)CO)C(=O)Cc2cc(NC(=O)CCCCCC(=O)Nc3ccccc3N)ccc2O[C@H]1CN(C)Cc1ccc(C(F)(F)F)cc1
45) C[C@H]1CN([C@@H](C)CO)C(=O)Cc2cc(NC(=O)CCCCCC(=O)Nc3ccccc3N)ccc2O[C@@H]1CN(C)Cc1ccc(-c2ccccc2)cc1
46) C[C@H]1CN([C@@H](C)CO)C(=O)Cc2cc(NC(=O)CCCCCC(=O)Nc3ccccc3N)ccc2O[C@H]1CN(C)Cc1ccc(C(F)(F)F)cc1

| compound no. | 43 | 44 | 45 | 46 |
| --- | --- | --- | --- | --- |
| UUG fidelity | -10 | -8 | 10 | 3 |
| PGC1a acetyl inh | 1 | 0 | -7 | 1 |
| E-sel inducer | 0 | 0 | 1 | 0 |
| Statin myotox sup | ? | ? | 133* | 111* |
| esBAF inh | 5 | -6 | 36 | -14 |
| PglD DTNB | -2 | -3 | 0 | 1 |
